This data set has as its system CD206. The settings on record: male Sprague Dawley rat, IV.

With “dextran 3-[(2-aminoethyl)thio]propyl 17-carboxy-10,13,16-tris(carboxymethyl)-8-oxo-4-thia-7,10,13,16-tetraazaheptadec-1-yl 3-[[2-[[1-imino-2-(D-mannopyranosylthio)ethyl]amino]ethyl]thio]propyl ether complexes [99mTc-tilmanocept]”, the “excretion of injected radioactivity into the urine” value (by one hour after injection) was “large portion of the injected radioactivity was excreted into the urine”. Besides, the “localization of radioactivity to the spleen” value (one hour after injection) is “significant (but lesser) localization”.

These data come from patent US20210145989A1, “COMPOSITIONS AND RELATED METHODS FOR BLOCKING OFF-TARGET LOCALIZATION OF MANNOSYLATED DEXTRANS AND OTHER CD206 LIGANDS” (Navidea Biopharmaceuticals, Inc., priority 2019, published 2021).
